Measured affinities in a library of Ab-14 light chain variants

The measurements come from Engelhart et al. 2022 (doi:10.1038/s41597-022-01779-4) through the FLAb antibody collection.

All variants were tested on one target, the spike HR2 peptide PDVDLGDISGINAS (SARS-CoV-2).

Ab-14 is the parent antibody, in scFv form: VH, then a 15-residue (Gly4Ser)3 linker, then VL. The heavy chain is unchanged in all variants.
VH: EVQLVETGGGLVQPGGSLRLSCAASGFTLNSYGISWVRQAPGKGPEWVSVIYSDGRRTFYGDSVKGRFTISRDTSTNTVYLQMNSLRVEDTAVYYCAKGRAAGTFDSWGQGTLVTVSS
VL: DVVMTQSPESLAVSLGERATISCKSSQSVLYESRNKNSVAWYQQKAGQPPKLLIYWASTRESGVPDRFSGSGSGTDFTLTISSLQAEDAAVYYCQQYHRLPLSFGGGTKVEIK

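The starting antibody came from a phage panning campaign against this peptide. AAYL50 was designed without a model: most single CDR substitutions and a random sample of double and triple ones. Affinity was read by AlphaSeq, a pooled yeast mating assay with surface-displayed partners. Binding brings cells together so that they mate, and sequencing counts the barcode pairs among the diploids. Scores were corrected for input abundance and mapped to Kd with protein pairs of known affinity run in the same pool. Mating was done three times.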

Changes read parent residue, position, new residue, counted from the first residue of the VL shown. Values are log10 of the apparent Kd in nM; lower means stronger binding. Replicates are averaged; those with no signal do not enter the mean. A pair that was not seen in that replicate is written "n.d."; this usually means weak binding, but a binder can also be missed. Parent in this assay: reference entry 0.65, copy in this library 1.68. As a blank, each scFv also met three strains without target: over library AAYL50, 18% of these pairings were detected, typically at 4.19 and seldom below 2.99. Also given: how often the same scFv was detected with the empty control strains, with their mean in brackets.

changes	log10 Kd (nM) by replicate	mean, log10 nM	empty controls
K24P Y31M	3.42 / n.d. / n.d.	3.42	4 of 9 (3.73)
N37D S62R Y97K	n.d. / n.d. / n.d.	n.d.	1 of 9 (4.29)
S26F P101C	6.03 / 5.23 / n.d.	5.63	3 of 9 (4.72)
A57K L100W	n.d. / n.d. / n.d.	n.d.	0 of 9
S28K E32Q H98D	1.56 / 1.63 / 1.71	1.63	3 of 9 (4.13)
S25Q L30Y L100K	n.d. / n.d. / n.d.	n.d.	0 of 9
S103V	0.85 / 1.06 / 0.97	0.96	0 of 9
N37M Q96L S103H	1.51 / 1.40 / 1.76	1.56	3 of 9 (4.32)
S33G S58M S62D	0.33 / 0.91 / 0.64	0.63	0 of 9
S38A H98C S103H	1.04 / 1.32 / 1.08	1.15	3 of 9 (4.29)
E32F W56A Q96M	0.63 / 0.84 / 0.76	0.75	6 of 9 (5.28)
K36H A57E H98P	5.28 / n.d. / 4.86	5.07	3 of 9 (3.99)
S26Q A40S W56G	0.07 / 0.40 / 0.26	0.24	1 of 9 (4.34)
R34V Y97M	4.84 / n.d. / n.d.	4.84	3 of 9 (5.05)
S33K L100C S103G	1.86 / 1.71 / 1.73	1.77	3 of 9 (4.47)
N35H R99T S103G	2.19 / 2.54 / 3.31	2.68	1 of 9 (3.27)
A40F R99G L100C	3.82 / 4.28 / n.d.	4.05	3 of 9 (4.26)
S38T H98D L102H	n.d. / n.d. / n.d.	n.d.	1 of 9 (4.66)
S26T S28H L102E	4.12 / n.d. / n.d.	4.12	2 of 9 (4.53)
L30Y E32C A40W	n.d. / n.d. / n.d.	n.d.	2 of 9 (3.45)
K36Q S38H Y97T	n.d. / n.d. / n.d.	n.d.	0 of 9
S26Q S38W R99S	3.83 / n.d. / 5.04	4.44	2 of 9 (4.57)
S26D L30K L100Y	n.d. / n.d. / n.d.	n.d.	1 of 9 (2.92)
K24L Q27G L102T	n.d. / n.d. / n.d.	n.d.	0 of 9
K24N R99Y L100C	2.17 / 1.70 / 1.98	1.95	0 of 9
V29K S33W W56E	-0.37 / 0.00 / -0.24	-0.20	0 of 9
R34K R99Q S103K	3.39 / 1.60 / 2.00	2.33	0 of 9
L30M S33W Q95H	3.25 / 2.60 / 2.88	2.91	0 of 9
S58R R99N L102Q	n.d. / n.d. / n.d.	n.d.	1 of 9 (2.58)
A57N Y97P R99G	n.d. / n.d. / n.d.	n.d.	1 of 9 (3.39)
L30D A57Y R60W	n.d. / n.d. / n.d.	n.d.	0 of 9
R60A L102Q	n.d. / n.d. / n.d.	n.d.	2 of 9 (3.68)
A40T H98W	4.30 / 4.82 / 4.00	4.37	2 of 9 (3.44)
V29S Y31W T59E	0.44 / 0.74 / 0.61	0.59	1 of 9 (4.84)
V29H Q95N L100H	0.70 / 0.87 / 0.79	0.79	1 of 9 (3.04)
S58H H98M L102F	2.48 / 2.70 / 2.67	2.61	1 of 9 (4.44)
E32H A40L Q95C	n.d. / n.d. / n.d.	n.d.	2 of 9 (3.82)

The opening 5 entries, copied out:

changes	log10 Kd (nM) by replicate	mean, log10 nM	empty controls
K24P Y31M	3.42 / n.d. / n.d.	3.42	4 of 9 (3.73)
N37D S62R Y97K	n.d. / n.d. / n.d.	n.d.	1 of 9 (4.29)
S26F P101C	6.03 / 5.23 / n.d.	5.63	3 of 9 (4.72)
A57K L100W	n.d. / n.d. / n.d.	n.d.	0 of 9
S28K E32Q H98D	1.56 / 1.63 / 1.71	1.63	3 of 9 (4.13)